Data taken from patent US6492381B1, “Tricyclic carbamate compounds useful for inhibition of G-protein function and for treatment of proliferative diseases” (Schering Corp., priority 1993, dated 2002).

By UniProt entry, the sequences of proteins in these tests, tags left out.
UniProt Q02293, whole entry: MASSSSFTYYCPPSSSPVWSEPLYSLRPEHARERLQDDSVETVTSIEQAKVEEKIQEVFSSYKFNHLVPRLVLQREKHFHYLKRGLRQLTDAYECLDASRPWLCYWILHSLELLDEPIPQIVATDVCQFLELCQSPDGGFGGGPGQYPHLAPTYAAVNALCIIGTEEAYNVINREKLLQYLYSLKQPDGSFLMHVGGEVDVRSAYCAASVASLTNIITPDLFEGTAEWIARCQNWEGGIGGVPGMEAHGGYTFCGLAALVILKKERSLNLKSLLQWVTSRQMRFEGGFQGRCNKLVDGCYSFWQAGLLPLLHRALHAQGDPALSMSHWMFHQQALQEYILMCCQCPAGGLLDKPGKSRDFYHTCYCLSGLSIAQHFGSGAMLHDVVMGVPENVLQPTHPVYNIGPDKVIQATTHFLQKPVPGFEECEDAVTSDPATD

Target: T1, farnesyl protein transferase (FPT) (Rattus norvegicus, UniProt Q02293+Q04631)
T1 construct: were partially purified from rat brain by ammonium sulfate fractionation followed by Q-Sepharose; from tissue; host or cells: rat brain
Experiment: In vitro enzyme assay: inhibition of farnesyl protein transferase
Assay type: biochemical
Procedure: 1. In vitro enzyme assays: Inhibition of farnesyl protein transferase and geranylgeranyl protein transferase.
Human farnesyl protein transferase was also expressed in E. coli, using cDNA clones encoding both the α and β subunits. […] Two forms of val^12-Ha-Ras protein were prepared as substrates for these enzymes, differing in their carboxy terminal sequence. One form terminated in cysteine-valine-leucine-serine (Ras-CVLS) the other in cystein-valine-leucine-leucine (Ras-CVLL). Ras-CVLS is a substrate for the farnesyl protein transferase while Ras-CVLL is a substrate for geranylgeranyl protein transferase I. The cDNAs encoding these proteins were constructed so that the proteins contain an amino-terminal extension of 6 histidine residues. Both proteins were expressed in Escherichia coli and purified using metal chelate affinity chromatography. The radiolabelled isoprenyl pyrophosphate substrates, [^3H]farnesyl pyrophosphate and [^3H]geranylgeranyl pyrophosphate, were purchased from DuPont/New England Nuclear.
The reaction was allowed to proceed for 30 minutes at room temperature and then stopped with 0.5 ml of 4% sodium dodecyl sulfate (SDS) followed by 0.5 ml of cold 30% trichloracetic acid (TCA). […] Percent inhibition was calculated relative to the DMSO vehicle control.

IC50: 8.9 µM
SMILES: CCOC(=O)N1CCC(C2c3ccc(Cl)cc3C=Cc3cccnc32)CC1 (stereo not shown) [Compound 620.00, 8-chloro-11-(1-ethoxycarbonyl-4-piperidinyl)-11H-benzo[5,6]cyclohepta[1,2-b]pyridine]
